Source: patent EP2090576A1, “6-halo-pyrazolo[1,5-a]pyridines, a process for their preparation and their use as metabotropic glutamate receptor (mGluR) modulators” (Merz Pharma GmbH & Co. KGaA, priority 2008, dated 2009)

Chains of the proteins cited; added tags and fusions are not shown. Residues count along the entry.
UniProt P31424, 21-1203: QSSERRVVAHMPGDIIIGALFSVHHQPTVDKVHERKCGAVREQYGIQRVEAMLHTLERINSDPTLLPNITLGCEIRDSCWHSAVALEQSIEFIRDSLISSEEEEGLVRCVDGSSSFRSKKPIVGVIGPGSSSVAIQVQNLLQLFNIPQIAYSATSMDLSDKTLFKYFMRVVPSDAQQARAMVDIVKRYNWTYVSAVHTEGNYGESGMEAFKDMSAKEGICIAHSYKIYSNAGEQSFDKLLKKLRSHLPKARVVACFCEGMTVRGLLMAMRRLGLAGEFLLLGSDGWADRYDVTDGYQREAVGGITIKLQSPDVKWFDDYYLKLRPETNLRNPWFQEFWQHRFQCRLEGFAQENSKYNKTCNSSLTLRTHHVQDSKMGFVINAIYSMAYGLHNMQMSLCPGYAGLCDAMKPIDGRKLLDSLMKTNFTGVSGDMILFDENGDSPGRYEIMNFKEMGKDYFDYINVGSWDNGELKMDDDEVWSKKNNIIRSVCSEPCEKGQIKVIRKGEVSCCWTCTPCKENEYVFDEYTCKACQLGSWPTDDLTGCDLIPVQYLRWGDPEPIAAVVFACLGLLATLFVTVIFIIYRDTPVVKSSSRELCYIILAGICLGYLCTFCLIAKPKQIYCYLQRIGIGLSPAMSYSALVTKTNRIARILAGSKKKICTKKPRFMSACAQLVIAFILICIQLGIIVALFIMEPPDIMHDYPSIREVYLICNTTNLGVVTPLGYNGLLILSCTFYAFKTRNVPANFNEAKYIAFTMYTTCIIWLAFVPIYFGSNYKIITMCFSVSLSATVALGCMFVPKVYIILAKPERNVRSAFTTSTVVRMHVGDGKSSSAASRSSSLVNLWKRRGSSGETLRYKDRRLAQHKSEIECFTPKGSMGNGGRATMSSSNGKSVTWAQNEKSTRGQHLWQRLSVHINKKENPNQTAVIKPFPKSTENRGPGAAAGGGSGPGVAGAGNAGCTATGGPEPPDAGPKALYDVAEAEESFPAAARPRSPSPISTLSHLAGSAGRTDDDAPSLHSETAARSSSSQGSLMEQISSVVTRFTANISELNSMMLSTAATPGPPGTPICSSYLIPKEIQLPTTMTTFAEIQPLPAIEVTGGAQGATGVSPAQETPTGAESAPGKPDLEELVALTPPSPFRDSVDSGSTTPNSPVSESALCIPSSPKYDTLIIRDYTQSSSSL

Target: transmembrane allosteric modulatory sites of mGluR5 receptors (Rattus norvegicus, UniProt P31424)

Question: Cc1cccc(C#Cc2ccccc2)n1 [MPEP, 2-methyl-6-(phenylethynyl)pyridine] was tested. Which Ki did it give?
Answer: 8.2 nM
